# Source: ChEMBL document CHEMBL5042486, “Discovery and Preclinical Characterization of BIIB091, a Reversible, Selective BTK Inhibitor for the Treatment of Multiple Sclerosis” (J Med Chem, 2022)
# Assay: Clearance in Sprague-Dawley rat assessed as hepatic blood flow at 1 mg/kg, iv
# Type: ADME, organism-based, Liver
# Conditions: in vivo
smiles,measurement,value
Cc1cc(-c2ccnc(Nc3cnn(C)c3)n2)ccc1CNC(=O)N1CC(OC(C)C)C1,QH,6%
